According to article PMC6150229, “Simultaneous Determination of Twenty-Five Compounds in Rat Plasma Using Ultra-High Performance Liquid Chromatography-Polarity Switching Tandem Mass Spectrometry and Its Application to a Pharmacokinetic Study” (Molecules : A Journal of Synthetic Chemistry and Natural …, 2017):

Assay: Pharmacokinetic study in sham and myocardial ischemia model rats after a single oral dose of QSKL (UHPLC-psMS/MS of plasma, non-compartmental analysis)
Settings: for distribution in rat plasma (quantifiable or not): QSKL-treated plasma samples, sham and model rats, single oral dose 8.0 g/kg; for AUC0–t / AUC0–∞ / Cmax / MRT / Tmax / t1/2: oral administration of QSKL, plasma, mean ± SD, n = 6
[1] = model group (MG, myocardial ischemia) rats

Substance | distribution in rat plasma (quantifiable or not) | AUC0–t [1] | AUC0–∞ [1] | Cmax [1] | MRT [1] | Tmax [1] | t1/2 [1] | AUC0–t (sham group (SG) rats) | AUC0–∞ (sham group (SG) rats) | Cmax (sham group (SG) rats) | MRT (sham group (SG) rats) | Tmax (sham group (SG) rats) | t1/2 (sham group (SG) rats)
harpagide | quantifiable in most samples | 6.17 ± 3.32 ng·h/mL | 6.88 ± 3.71 ng·h/mL | 2.83 ± 2.59 ng/mL | 7.46 ± 3.49 h | 40.2 ± 31.2 min | 6.42 ± 2.99 h | 2.87 ± 1.16 ng·h/mL | 3.63 ± 1.31 ng·h/mL | 0.590 ± 0.294 ng/mL | 14.1 ± 3.84 h | 75 ± 60.6 min | 8.65 ± 2.06 h
liquiritin apioside | quantifiable in most samples | 3.59 ± 2.08 ng·h/mL | 4.16 ± 2.41 ng·h/mL | 2.39 ± 1.37 ng/mL | 9.22 ± 6.33 h | 24 ± 13.8 min | 8.15 ± 5.97 h | 2.91 ± 1.11 ng·h/mL | 3.85 ± 1.38 ng·h/mL | 0.800 ± 0.440 ng/mL | 12.5 ± 5.12 h | 21.6 ± 18.6 min | 8.54 ± 5.59 h
